{"source": "patent US20060177448A1", "about": "“Inhibiting HER2 shedding with matrix metalloprotease antagonists” (Genentech, Inc., priority 2005, published 2006)", "type_in_all_cases": "cell-based, human", "settings_in_all_cases": "10 μg/ml", "key": {"SKBR-3 cells [1]": {"tested_on": "SKBR-3 cells", "assay": "HER2 ECD ELISA of conditioned media (HER2 shedding), SKBR-3 cells"}, "BT 474 cells [2]": {"tested_on": "BT 474 cells", "assay": "HER2 ECD ELISA of conditioned media (HER2 shedding), BT 474 cells"}, "SKBR-3 cells [3]": {"tested_on": "SKBR-3 cells", "assay": "Proliferation assay (Alamar blue), SKBR-3 cells"}, "BT 474 cells [4]": {"tested_on": "BT 474 cells", "assay": "Proliferation assay (Alamar blue), BT 474 cells"}}, "data": [{"substance": "trastuzumab: antibody comprising the light and heavy chain amino acid sequences in SEQ ID NOS. 5 and 6; humanized version of murine HER2 antibody 4D5", "values": [{"measurement": "reduction of HER2 ECD shedding", "setting": "SKBR-3 cells [1]", "result": "more than 60%"}, {"measurement": "reduction of HER2 ECD shedding", "setting": "BT 474 cells [2]", "result": "more than 60%"}, {"measurement": "reduction of cellular proliferation", "setting": "SKBR-3 cells [3]", "result": 50, "unit": "%"}, {"measurement": "reduction of cellular proliferation", "setting": "BT 474 cells [4]", "result": 50, "unit": "%"}]}]}
